Assays:
Format in all cases: cell-based
glucagon receptor = target: T1, glucagon receptor (Homo sapiens, UniProt P47871); assay: cAMP synthesis functional assay (firefly luciferase reporter in HEK293 cells), glucagon receptor; settings: relative to the standard (Std.) EC50 of the same run
T1 construct: expressed in transfected cells; host or cells: HEK293

Amino acid sequences for entries named in this document (tags omitted). Residues count along the entry.
UniProt P47871, 26-477: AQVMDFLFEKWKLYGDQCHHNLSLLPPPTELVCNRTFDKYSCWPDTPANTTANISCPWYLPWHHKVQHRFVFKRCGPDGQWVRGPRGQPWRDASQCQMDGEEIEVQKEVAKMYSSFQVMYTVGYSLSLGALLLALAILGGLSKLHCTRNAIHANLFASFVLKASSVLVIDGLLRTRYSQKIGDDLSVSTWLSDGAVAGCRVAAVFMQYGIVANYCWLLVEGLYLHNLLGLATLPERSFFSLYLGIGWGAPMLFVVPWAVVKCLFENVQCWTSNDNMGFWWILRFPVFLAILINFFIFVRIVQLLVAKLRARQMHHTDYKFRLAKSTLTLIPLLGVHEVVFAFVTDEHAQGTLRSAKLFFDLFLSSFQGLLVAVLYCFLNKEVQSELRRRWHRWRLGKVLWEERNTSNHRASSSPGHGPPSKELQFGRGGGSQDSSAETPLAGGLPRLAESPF
UniProt P43220, 24-463, species assumed: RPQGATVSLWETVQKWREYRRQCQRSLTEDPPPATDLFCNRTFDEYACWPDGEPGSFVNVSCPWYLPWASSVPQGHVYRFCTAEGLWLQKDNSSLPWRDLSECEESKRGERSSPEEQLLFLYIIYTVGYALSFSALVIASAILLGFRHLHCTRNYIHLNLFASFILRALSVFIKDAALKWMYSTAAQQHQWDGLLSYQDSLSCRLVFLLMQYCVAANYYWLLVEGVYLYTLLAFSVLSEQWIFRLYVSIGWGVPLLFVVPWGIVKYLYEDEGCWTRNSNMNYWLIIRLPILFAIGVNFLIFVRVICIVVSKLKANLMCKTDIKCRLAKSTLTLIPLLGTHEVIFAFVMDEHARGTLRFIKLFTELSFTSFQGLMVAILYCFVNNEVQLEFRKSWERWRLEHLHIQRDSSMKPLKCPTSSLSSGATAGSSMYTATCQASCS

GLP-1 receptor = target: T2, GLP-1 receptor (Homo sapiens, UniProt P43220); assay: cAMP synthesis functional assay (firefly luciferase reporter in HEK293 cells), GLP-1 receptor; settings: relative to the standard (Std.) EC50 of the same run
T2 construct: expressed in transfected cells; host or cells: HEK293

GIP receptor = target: T3, GIP receptor (Homo sapiens, UniProt P48546); assay: cAMP synthesis functional assay (firefly luciferase reporter in HEK293 cells), GIP receptor; settings: relative to the standard (Std.) EC50 of the same run
T3 construct: expressed in transfected cells; host or cells: HEK293
T3 sequence (P48546 22-466): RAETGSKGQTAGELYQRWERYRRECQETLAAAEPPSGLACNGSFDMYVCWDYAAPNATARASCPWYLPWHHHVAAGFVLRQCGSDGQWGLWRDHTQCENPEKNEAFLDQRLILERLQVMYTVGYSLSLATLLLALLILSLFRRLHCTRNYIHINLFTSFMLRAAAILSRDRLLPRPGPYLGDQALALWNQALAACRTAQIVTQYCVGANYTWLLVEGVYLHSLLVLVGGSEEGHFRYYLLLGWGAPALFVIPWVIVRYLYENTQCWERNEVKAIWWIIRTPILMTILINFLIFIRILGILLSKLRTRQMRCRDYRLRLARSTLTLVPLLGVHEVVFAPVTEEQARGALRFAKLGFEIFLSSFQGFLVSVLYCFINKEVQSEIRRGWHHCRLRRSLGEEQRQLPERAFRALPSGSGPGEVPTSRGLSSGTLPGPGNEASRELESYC

[1] = tested on: glucagon receptor, GLP-1 receptor or GIP receptor; assay: Agonist profile across receptors assigned from the cAMP reporter assay data; settings: assigned from the in vitro EC50 data of Tables 1-4

Question: Which “Glucagon Receptor relative activity” value (glucagon receptor) does the source give for CCCCCCCCCCCCCC(=O)NCCCC[C@H](NC(=O)[C@H](CO)NC(=O)[C@@H]1CCCN1C(=O)[C@@H]1CCCN1C(=O)[C@@H]1CCCN1C(=O)[C@H](C)NC(=O)CNC(=O)[C@H](CO)NC(=O)[C@H](CO)NC(=O)[C@@H]1CCCN1C(=O)CNC(=O)CNC(=O)[C@H](CC(N)=O)NC(=O)[C@H](CCSC)NC(=O)[C@H](CC(C)C)NC(=O)[C@H](Cc1c[nH]c2ccccc12)NC(=O)[C@H](CS)NC(=O)[C@@H](NC(=O)[C@H](Cc1ccccc1)NC(=O)[C@H](CCC(=O)O)NC(=O)[C@H](CCCCN)NC(=O)[C@H](C)NC(=O)[C@H](C)NC(=O)[C@H](CCC(N)=O)NC(=O)[C@H](CCC(=O)O)NC(=O)[C@H](CC(=O)O)NC(=O)[C@H](CC(C)C)NC(=O)[C@H](Cc1ccc(O)cc1)NC(=O)[C@H](CCCCN)NC(=O)[C@H](CO)NC(=O)[C@H](Cc1ccc(O)cc1)NC(=O)[C@H](CC(=O)O)NC(=O)[C@H](CO)NC(=O)[C@@H](NC(=O)[C@H](Cc1ccccc1)NC(=O)[C@@H](NC(=O)CNC(=O)[C@H](CCC(N)=O)NC(=O)C(C)(C)NC(=O)[C@@H](N)Cc1c[nH]cn1)[C@@H](C)O)[C@@H](C)O)[C@@H](C)CC)C(N)=O [mt-345] here?
Answer: 192.90%

Question: What about the “GLP-1 Receptor relative activity” value (GLP-1 receptor) of the same compound?
Answer: 152.78%

Question: What about the “GIP Receptor relative activity” value (GIP receptor) of the same compound?
Answer: 4.99%

Question: And the “receptor activity profile (glucagon / GLP-1 / GIP agonism)” value [1]?
Answer: exhibited activity at the GIP, GLP-1, and glucagon receptors

Source: patent publication US9062124B2, “GIP-based mixed agonists for treatment of metabolic disorders and obesity” (priority 2008, dated 2015)
